Values of other authors, collected in PMC6342991, “Effects of point mutations in the binding pocket of the mouse major urinary protein MUP20 on ligand affinity and specificity” (Scientific Reports, 2019).

Biological target: T1, MUP20Y103R (Mus musculus, UniProt Q5FW60, Y103R)
T1 construct: 6xHis (N); made in house; host or cells: E. coli BL21(DE3), pET5b
T1 sequence (Q5FW60 20-181 Y103R): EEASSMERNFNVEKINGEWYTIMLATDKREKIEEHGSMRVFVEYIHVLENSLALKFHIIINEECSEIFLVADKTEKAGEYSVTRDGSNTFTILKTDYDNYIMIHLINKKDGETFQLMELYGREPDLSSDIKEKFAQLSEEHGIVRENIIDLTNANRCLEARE
Design: method as in Scorsone et al., IEEE Sensors Journal 2016, 16, 6543, Tab. 1
Conditions: ref Scorsone et al., IEEE Sensors Journal 2016, 16, 6543, Tab. 1; read-out: Kd, Y103R (starred value); cited from earlier work

CC1=CC(=O)c2ccccc2C1=O [MEN, methylnapthalene-1,4-dione]
Kd: 1330 nM
